The values that follow are results of earlier work, collected in US20090053245A1, “Pharmacokinetics and Efficacy of Anti-Angiogenic Drugs and Drugs Treating Diseases of the Blood” (priority 2007, published 2009).

The conditions of the data set: in vivo; cited from earlier work.

The term half-life denotes how long it takes for the measured level to halve. Turning to insulin, the half-life is 8 h.
